Results on five molecules are retold here after PubChem BioAssay (EPA / NIEHS).

Protein sequences, listed by entry. Tags and fused reporters are not part of them.
UniProt P19793, whole entry: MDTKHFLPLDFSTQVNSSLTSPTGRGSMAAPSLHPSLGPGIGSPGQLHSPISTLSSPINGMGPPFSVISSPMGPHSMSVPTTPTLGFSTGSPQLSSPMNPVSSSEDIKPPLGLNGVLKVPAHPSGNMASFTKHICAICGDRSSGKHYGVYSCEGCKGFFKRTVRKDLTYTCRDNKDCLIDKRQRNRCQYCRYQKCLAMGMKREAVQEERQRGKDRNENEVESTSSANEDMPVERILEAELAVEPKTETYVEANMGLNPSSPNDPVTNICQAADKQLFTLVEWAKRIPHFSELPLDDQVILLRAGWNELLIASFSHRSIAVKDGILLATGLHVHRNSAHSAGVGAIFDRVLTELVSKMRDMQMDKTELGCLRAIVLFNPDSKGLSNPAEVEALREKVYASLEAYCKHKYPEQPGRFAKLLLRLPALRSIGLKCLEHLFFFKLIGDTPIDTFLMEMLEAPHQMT
UniProt P10827, whole entry: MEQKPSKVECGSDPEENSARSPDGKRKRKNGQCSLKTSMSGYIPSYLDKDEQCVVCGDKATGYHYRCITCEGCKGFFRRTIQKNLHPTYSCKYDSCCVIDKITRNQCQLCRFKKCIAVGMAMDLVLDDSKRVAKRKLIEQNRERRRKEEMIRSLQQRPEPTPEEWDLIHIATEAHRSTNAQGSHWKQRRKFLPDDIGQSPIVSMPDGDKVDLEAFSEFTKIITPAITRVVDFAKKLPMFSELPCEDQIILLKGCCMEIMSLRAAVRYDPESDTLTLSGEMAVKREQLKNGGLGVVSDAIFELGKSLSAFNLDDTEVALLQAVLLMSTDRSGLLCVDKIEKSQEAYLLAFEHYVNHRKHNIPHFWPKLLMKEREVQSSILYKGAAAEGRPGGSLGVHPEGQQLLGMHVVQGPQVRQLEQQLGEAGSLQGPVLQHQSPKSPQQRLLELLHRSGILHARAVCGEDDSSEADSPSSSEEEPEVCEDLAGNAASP
UniProt P16581, whole entry: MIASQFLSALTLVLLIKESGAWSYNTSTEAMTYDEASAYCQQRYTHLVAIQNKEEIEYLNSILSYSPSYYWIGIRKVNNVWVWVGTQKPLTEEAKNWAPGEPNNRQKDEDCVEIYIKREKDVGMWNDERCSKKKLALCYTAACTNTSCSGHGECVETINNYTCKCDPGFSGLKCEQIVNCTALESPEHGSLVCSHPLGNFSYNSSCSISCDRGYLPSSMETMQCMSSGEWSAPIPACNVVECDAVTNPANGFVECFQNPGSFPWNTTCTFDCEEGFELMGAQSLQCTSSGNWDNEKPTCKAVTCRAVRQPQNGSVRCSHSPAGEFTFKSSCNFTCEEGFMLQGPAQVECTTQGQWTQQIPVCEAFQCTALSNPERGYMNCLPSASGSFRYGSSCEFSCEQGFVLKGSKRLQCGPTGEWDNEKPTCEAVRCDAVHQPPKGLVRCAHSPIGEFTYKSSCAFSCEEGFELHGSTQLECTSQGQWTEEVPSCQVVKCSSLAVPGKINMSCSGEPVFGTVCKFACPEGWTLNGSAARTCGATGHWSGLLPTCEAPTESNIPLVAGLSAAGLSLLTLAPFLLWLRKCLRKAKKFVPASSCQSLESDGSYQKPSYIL
UniProt Q92753, whole entry: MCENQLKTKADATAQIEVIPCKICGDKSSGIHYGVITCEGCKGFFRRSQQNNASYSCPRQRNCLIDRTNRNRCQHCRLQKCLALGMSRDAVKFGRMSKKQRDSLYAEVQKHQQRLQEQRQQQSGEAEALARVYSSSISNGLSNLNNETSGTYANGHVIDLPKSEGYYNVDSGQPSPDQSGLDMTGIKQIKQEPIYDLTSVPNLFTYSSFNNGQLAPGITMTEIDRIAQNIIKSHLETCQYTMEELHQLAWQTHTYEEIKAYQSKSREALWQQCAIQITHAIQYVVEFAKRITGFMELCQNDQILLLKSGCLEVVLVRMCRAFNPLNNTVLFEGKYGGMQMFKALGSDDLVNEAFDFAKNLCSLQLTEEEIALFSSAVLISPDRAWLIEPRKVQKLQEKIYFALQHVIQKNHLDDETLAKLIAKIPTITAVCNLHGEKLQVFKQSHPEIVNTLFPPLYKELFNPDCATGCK
UniProt P51449, whole entry: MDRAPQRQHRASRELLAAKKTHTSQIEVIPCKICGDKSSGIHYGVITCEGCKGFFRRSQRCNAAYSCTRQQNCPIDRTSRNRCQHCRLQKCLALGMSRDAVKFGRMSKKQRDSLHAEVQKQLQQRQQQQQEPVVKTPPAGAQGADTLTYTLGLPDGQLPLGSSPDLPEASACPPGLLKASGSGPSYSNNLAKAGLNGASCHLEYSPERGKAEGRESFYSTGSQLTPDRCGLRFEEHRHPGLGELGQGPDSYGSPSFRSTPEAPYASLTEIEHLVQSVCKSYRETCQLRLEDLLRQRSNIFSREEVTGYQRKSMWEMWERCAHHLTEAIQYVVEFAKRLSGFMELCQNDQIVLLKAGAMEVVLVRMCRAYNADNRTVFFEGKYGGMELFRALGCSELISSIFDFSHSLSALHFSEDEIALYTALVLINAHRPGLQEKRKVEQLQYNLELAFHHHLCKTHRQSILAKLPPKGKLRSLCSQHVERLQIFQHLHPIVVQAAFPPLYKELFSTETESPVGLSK

For experiment [1], the target named is Retinoic acid receptor RXR-alpha (Homo sapiens) (UniProt P19793). As to the kind of experiment: ATG_RXRa_TRANS: Attagene TRANS-FACTORIAL HepG2 Assay for human Retinoid X Receptor alpha (RXRa) (AID 2283012; active = hit-call score of the fitted dose curve at least 0.9, where 1 is the maximum). An outline of the steps:
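Measures exogenous chimeric NR-GAL4 activity in transfected HepG2 liver cells after 24 h of dosing. Induced reporter mRNA was detected by RT-PCR with capillary electrophoresis, and gain of signal was analysed against DMSO.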

Experiment [2] has as its target human Thyroid Receptor alpha (THRa1), THRA (gene 7067) (UniProt P10827). As to the kind of experiment: ATG_THRa1_TRANS: Attagene TRANS-FACTORIAL HepG2 Assay for human Thyroid Receptor alpha (THRa1) (AID 2283014; active = hit-call score of the fitted dose curve at least 0.9, where 1 is the maximum). The method, then:
ATG_TRANS is a cell-based, multiplexed-readout assay that uses HepG2, a human liver cell line, with measurements taken at 24 hours after chemical dosing in a 24-well plate.ATG_THRa1_TRANS is one of 30 assay component(s) measured or calculated from the ATG_TRANS assay. It is designed to make measurements of mRNA induction, a form of inducible reporter, as detected with fluorescence intensity signals by Reverse transcription polymerase chain reaction (RT-PCR) and Capillary electrophoresis technology.Data from the assay component ATG_THRa1_TRANS was analyzed into 1 assay endpoint. This assay endpoint, ATG_THRa1_TRANS, was analyzed in the positive analysis fitting direction relative to DMSO as the negative control and baseline of activity. Using a type of inducible reporter, measures of mRNA for gain-of-signal activity can be used to understand the reporter gene at the transcription factor-level as they relate to the gene THRA. Furthermore, this assay endpoint can be referred to as a primary readout, because this assay has produced multiple assay endpoints where this one serves a reporter gene function. To generalize the intended target to other relatable targets, this assay endpoint is annotated to the nuclear receptor intended target family, where the subfamily is non-steroidal.
Human liver HepG2 cells are transiently transfected with multiple reporter transcription units (MRTUs) in 6-well plates using FuGene 6 reagent (Roche; 3 ml FuGene/1 mg DNA). The MRTU constructs are regulated by a cis-regulating element (promoter). […] A major difference between the CIS and TRANS system is that in CIS activities of endogenous TFs are measured, whereas the TRANS assay evaluates changes in activities of exogenous, chimeric NR-Gal4 proteins. […] The fragments were purified using Qiaquick PCR columns (Qiagen), analyzed on an ABI 3130xL genetic analyzer (Applied Biosystems) with peak positions identified by using a set of X-rhodamine (ROX)-labeled MapMarker1000 molecular weight standards (BioVentures). […]

Read-out in experiment [3]: E-selectin (Homo sapiens) (UniProt P16581)
Kind of experiment: BSK_3C_Eselectin: BioMAP Diversity Plus: 3C Assay for Eselectin Biomarker Activity (AID 2283015).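 Note: cell surface E-selectin protein quantified by ELISA 24 h after dosing.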 As to conditions: actives raise or lower the signal; primary human endothelial cells (HUVEC). An outline of the steps:
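Primary human umbilical vein endothelial cells (3C system), read 24 h after compound addition; E-selectin measured by ELISA. Bidirectional curve fitting against DMSO baseline; cytotoxicity by parallel SRB total-protein staining.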

Read-out in experiment [4]: Interleukin-1 alpha (IL1a), IL1A (gene 3552)
As to the kind of experiment: BSK_BE3C_IL1a: BioMAP Diversity Plus: BE3C Assay for Interleukin-1 alpha (IL1a) Biomarker Activity (AID 2283016). Conditions: actives raise or lower the signal; primary human bronchial epithelial cells. An outline of the steps: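 Signal from IL-1a ELISA, taken 24 h after chemical dosing of human bronchial epithelial cells, is compared with DMSO as baseline using bidirectional curve fitting.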

Read-out in experiment [5]: Monocyte Chemoattractant Protein-1 (MCP1), CCL2 (gene 6347)
As to the kind of experiment: BSK_3C_MCP1: BioMAP Diversity Plus: 3C Assay for Monocyte Chemoattractant Protein-1 (MCP1) Biomarker Activity (AID 2283017). As to conditions: actives raise or lower the signal; primary human endothelial cells (HUVEC). An outline of the steps:
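Human umbilical vein endothelial cells (3C system) exposed to chemicals for 24 h; MCP-1 quantified by ELISA against the DMSO baseline with bidirectional fitting, and parallel SRB staining used to assess cytotoxicity.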

Read-out in experiment [6]: Monocyte Chemoattractant Protein-1 (MCP1), CCL2 (gene 6347)
Kind of experiment: BSK_4H_MCP1: BioMAP Diversity Plus: 4H Assay for Monocyte Chemoattractant Protein-1 (MCP1) Biomarker Activity (AID 2283018). Conditions: actives raise or lower the signal; primary human endothelial cells (HUVEC). In a few lines: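 Endothelial cells from umbilical vein were treated with test chemical, then after 24 h MCP-1 levels were quantified by ELISA; endpoint values came from bidirectional fitting with DMSO as baseline of activity.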

Read-out in experiment [7]: Human Leukocyte Antigen - DR isotype (HLADR), HLA-DRA (gene 3122)
As to the kind of experiment: BSK_3C_HLADR: BioMAP Diversity Plus: 3C Assay for Human Leukocyte Antigen - DR isotype (HLADR) Biomarker Activity (AID 2283019). As to conditions: actives raise or lower the signal; primary human endothelial cells (HUVEC). In a few lines: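 HUVEC monoculture, HLA-DR measured by ELISA 24 h after chemical dosing. Fitted bidirectionally against DMSO baseline; parallel SRB staining assessed cytotoxicity, with 3C proliferation read by SRB at 48 h.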

Read-out in experiment [8]: Interleukin-8 (IL8), CXCL8 (gene 3576)
As to the kind of experiment: BSK_3C_IL8: BioMAP Diversity Plus: 3C Assay for Interleukin-8 (IL8) Biomarker Activity (AID 2283020). Conditions: actives raise or lower the signal; primary human endothelial cells (HUVEC). In a few lines: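 Endothelial primary cells of human umbilical vein origin are dosed with chemical; after 24 h the IL-8 biomarker is measured by ELISA, and concentration–response is fitted in both directions versus DMSO.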

For experiment [9], the target named is human RAR-related Orphan Receptor beta (RORb), RORB (gene 6096) (UniProt Q92753). Kind of experiment: ATG_RORb_TRANS: Attagene TRANS-FACTORIAL HepG2 Assay for human RAR-related Orphan Receptor beta (RORb) (AID 2283010; active = hit-call score of the fitted dose curve at least 0.9, where 1 is the maximum). An outline of the steps: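 Transfect HepG2 with multiple GAL4-UAS reporter transcription units; dose chemicals for 24 h; isolate RNA, reverse-transcribe and PCR-amplify reporter sequences; label, digest and resolve fragments by capillary electrophoresis; fit increases relative to DMSO.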

The target in experiment [10] is human RAR-related Orphan Receptor gamma (RORg), RORC (gene 6097) (UniProt P51449). As to the kind of experiment: ATG_RORg_TRANS: Attagene TRANS-FACTORIAL HepG2 Assay for human RAR-related Orphan Receptor gamma (RORg) (AID 2283011; active = hit-call score of the fitted dose curve at least 0.9, where 1 is the maximum). An outline of the steps: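 HepG2 cells transiently transfected with GAL4-UAS reporter units and chimeric RORg-Gal4 construct; after 24 h chemical exposure, reporter mRNA measured by RT-PCR with fluorescent capillary electrophoresis, gain of signal fitted against DMSO.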

The list shows a part of the results, in another mix than the full data. Records with an inconclusive call do not appear. Calls of active or inactive are those of the source. Rule for the calls, unless noted: active = hit-call score of the fitted dose curve at least 0.9, where 1 is the maximum; inactive = score below 0.9.

Usually AC50 stands for the concentration giving half of the maximal activity seen.

`CC(C)OP(OC(C)C)OC(C)C`: the molecule was called inactive in [1], in [2], in experiment [3], in experiment [4], in experiment [5] and in experiment [6]. The result in experiment [7] and in experiment [8] was inactive.
For `ClCCOP(OCCCl)OCCCl`, the molecule was classed as inactive in experiment [9] and in experiment [1].
In the case of `CCOP(=O)(Cl)Cl`, the molecule was called inactive in experiment [9] and in [10].
As to `ClCCNCCCl`, the result in experiment [9], in [10] and in experiment [2] was inactive.
For the molecule `O=[N+]([O-])c1ccccc1[N+](=O)[O-]`, the call in [9], in [10], in experiment [2], in experiment [3], in experiment [4] and in experiment [5] was inactive. The result in [6] and in experiment [8] was inactive. Besides, the AC50 in [7] is active: 27.2 µM.
